Measured values published in patent publication US10590113B2, “6-hydroxy-4-oxo-1,4-dihydropyrimidine-5-carboxamides as APJ agonists” (priority 2016, dated 2020).

Sequences of proteins named here, by UniProt entry; tags and fusion partners are left off.
UniProt P35414, whole entry: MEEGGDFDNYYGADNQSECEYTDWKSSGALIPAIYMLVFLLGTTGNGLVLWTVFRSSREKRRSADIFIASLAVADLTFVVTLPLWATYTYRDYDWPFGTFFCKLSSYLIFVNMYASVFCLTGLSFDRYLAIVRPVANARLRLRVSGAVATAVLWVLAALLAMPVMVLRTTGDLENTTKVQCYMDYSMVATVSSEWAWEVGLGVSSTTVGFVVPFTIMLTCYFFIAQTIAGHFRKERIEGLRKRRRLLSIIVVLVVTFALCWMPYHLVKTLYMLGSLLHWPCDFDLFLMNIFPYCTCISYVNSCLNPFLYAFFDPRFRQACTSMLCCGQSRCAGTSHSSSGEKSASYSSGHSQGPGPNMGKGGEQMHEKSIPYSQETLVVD

Target: human APJ receptor (Homo sapiens, UniProt P35414)
Experiment: Intracellular cAMP Accumulation Assay (APJ hcAMP, HTRF)
Type: cell-based
[1] = read-out: hAPJ cAMP EC50 Potency range, intracellular cAMP accumulation
[2] = read-out: hAPJ cAMP EC50 Potency range, cAMP accumulation, potency range class

SMILES | EC50 [1] | EC50 [2]
CCCCc1nc(=O)c(C(=O)N2CC[C@@H](c3ccccc3)C2)c(O)n1[C@@H]1CCc2ccccc21 | 100 to 300 nM | –
CCCCc1nc(=O)c(C(=O)N2CC[C@@H](c3ccccc3)C2)c(O)n1[C@H]1CCCc2ccccc21 | 10 to 100 nM | –
CCCCc1nc(=O)c(C(=O)N2CC[C@H](c3ccccc3)C2)c(O)n1C(C)c1ccccc1 (some centres unmarked) | 0.01 to 10 nM | –
CCCCc1nc(=O)c(C(=O)N2CC[C@H](c3ccccc3)C2)c(O)n1[C@@H](CC)c1cccc(C#N)c1 | – | 0.01 to 10 nM
CCCCc1nc(=O)c(C(=O)N2CC[C@H](c3ccccc3)C2)c(O)n1[C@@H]1CCc2ccccc21 | 10 to 100 nM | –
CCCCc1nc(=O)c(C(=O)N2CC[C@H](c3ccccc3)C2)c(O)n1[C@H]1CCCc2ccccc21 | 10 to 100 nM | –
CC[C@@H](c1cccc(C#N)c1)n1c(COC(C)C)nc(=O)c(C(=O)N2CC[C@H](c3ccccc3)C2)c1O | – | 0.01 to 10 nM
CCCCc1nc(=O)c(C(=O)N2CCC(c3ccc(Cl)cn3)C2)c(O)n1[C@H](c1cccc(C#N)c1)C1CC1 (single isomer, unassigned) | – | 0.01 to 10 nM
CCCCc1nc(=O)c(C(=O)N2CCC(c3ccc(F)cn3)C2)c(O)n1[C@@H](CC)c1cccc(C#N)c1 (single isomer, unassigned) | – | 0.01 to 10 nM
CCCCc1nc(=O)c(C(=O)N2CCC(c3ccccc3F)C2)c(O)n1[C@@H](CC)c1ccccc1 (single isomer, unassigned) | 0.01 to 10 nM | –
CCCCc1nc(=O)c(C(=O)N2CCC(c3ncc(Cl)cc3F)C2)c(O)n1[C@@H](CC)c1cc(F)cc(F)c1 (single isomer, unassigned) | – | 0.01 to 10 nM
CCCCc1nc(=O)c(C(=O)N2CCC(c3ncc(Cl)cc3F)C2)c(O)n1[C@@H](CC)c1cccc(C#N)c1 (single isomer, unassigned) | – | 0.01 to 10 nM
CCCCc1nc(=O)c(C(=O)N2CCC(c3ncc(Cl)cc3F)C2)c(O)n1[C@@H](CC)c1ccccc1 (single isomer, unassigned) | – | 0.01 to 10 nM
CCCCc1nc(=O)c(C(=O)N2CCC(c3ncc(F)cc3F)C2)c(O)n1C(CC)c1ccccc1 (single isomer, unassigned) | – | 0.01 to 10 nM
CCCCc1nc(=O)c(C(=O)N2CCC(c3ncc(F)cc3F)C2)c(O)n1[C@@H](CC)c1cc(F)cc(F)c1 (single isomer, unassigned) | – | 0.01 to 10 nM
CCCCc1nc(=O)c(C(=O)N2CCC(c3ncc(F)cc3F)C2)c(O)n1[C@@H](CC)c1cccc(C#N)c1 (single isomer, unassigned) | – | 0.01 to 10 nM
CCCCc1nc(=O)c(C(=O)N2CCC(c3ncc(F)cc3F)C2)c(O)n1[C@@H](CC)c1cccc(OC)c1 (single isomer, unassigned) | – | 0.01 to 10 nM

Read-outs that look alike come from different tables or passages of the source.
